What was measured:
[1] = target: human GPR40 receptor (Homo sapiens (Human), UniProt O14842); assay: IP1 accumulation measurements using the IPOne assay system; conditions: 1321N1 cells stably expressing human GPR40, 1 h stimulation
Protocol: IP1 accumulation measurements using the IPOne assay system—1321N1 cells stably expressing human GPR40 receptor (Euroscreen, Belgium) are seeded 24 h before the assay in white 384-well plates in culture medium containing 10% FCS, 1% Na-Pyruvate and 400 μg/mL G418. IP1 is assayed according to the manufacturer's description (Cisbio Bioassays, France). In brief, the assay is started by substitution of the culture medium by stimulation buffer (Hepes 10 mM, CaCl2 1 mM, MgCl2 0.5 mM, KCl 4.2 mM, NaCl 146 mM, glucose 5.5 mM and LiCl 50 mM, pH 7.4). Cells are stimulated for 1 h at 37° C., 5% CO2 by addition of the compounds that are diluted in stimulation buffer containing LiCl. Assays are stopped by adding HTRF-conjugates (IP1-d2 and Anti-IP1 cryptate Tb) and lysis buffer, provided by the manufacturer. After an incubation time of 1 h at room temperature plates are measured using an EnVision™, Perkin Elmer. The obtained fluorescence ratios at 665/615 […] are then used to calculate the pEC50 values using Assay Explorer 3.3 Software (Accelrys, Inc.) by interpolation using an IP1 reference curve and subsequent sigmoidal curve fitting allowing for a variable hill slope.

Chains of the proteins cited; added tags and fusions are not shown.
UniProt O14842, whole entry: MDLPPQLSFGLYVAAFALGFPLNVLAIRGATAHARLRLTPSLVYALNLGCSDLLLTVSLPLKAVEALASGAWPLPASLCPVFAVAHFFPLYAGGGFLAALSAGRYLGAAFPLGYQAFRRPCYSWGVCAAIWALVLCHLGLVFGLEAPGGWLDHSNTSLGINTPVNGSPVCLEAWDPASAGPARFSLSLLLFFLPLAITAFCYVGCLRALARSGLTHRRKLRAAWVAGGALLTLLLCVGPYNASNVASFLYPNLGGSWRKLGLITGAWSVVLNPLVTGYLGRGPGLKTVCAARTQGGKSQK
UniProt P10632, whole entry: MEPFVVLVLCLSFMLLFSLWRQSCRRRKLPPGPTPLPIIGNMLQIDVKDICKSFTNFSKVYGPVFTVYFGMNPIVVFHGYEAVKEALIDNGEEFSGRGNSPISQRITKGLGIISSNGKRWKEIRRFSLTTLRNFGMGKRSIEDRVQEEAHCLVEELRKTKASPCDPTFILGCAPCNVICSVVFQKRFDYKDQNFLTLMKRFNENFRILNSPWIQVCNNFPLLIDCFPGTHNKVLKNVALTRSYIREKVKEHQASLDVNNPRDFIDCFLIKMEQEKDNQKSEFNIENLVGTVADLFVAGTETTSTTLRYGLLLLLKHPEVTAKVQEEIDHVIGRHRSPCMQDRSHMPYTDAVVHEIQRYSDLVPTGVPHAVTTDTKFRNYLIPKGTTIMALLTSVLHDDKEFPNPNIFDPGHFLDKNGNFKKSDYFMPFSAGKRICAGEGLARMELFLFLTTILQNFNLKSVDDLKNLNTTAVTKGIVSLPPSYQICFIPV
UniProt P11712, whole entry: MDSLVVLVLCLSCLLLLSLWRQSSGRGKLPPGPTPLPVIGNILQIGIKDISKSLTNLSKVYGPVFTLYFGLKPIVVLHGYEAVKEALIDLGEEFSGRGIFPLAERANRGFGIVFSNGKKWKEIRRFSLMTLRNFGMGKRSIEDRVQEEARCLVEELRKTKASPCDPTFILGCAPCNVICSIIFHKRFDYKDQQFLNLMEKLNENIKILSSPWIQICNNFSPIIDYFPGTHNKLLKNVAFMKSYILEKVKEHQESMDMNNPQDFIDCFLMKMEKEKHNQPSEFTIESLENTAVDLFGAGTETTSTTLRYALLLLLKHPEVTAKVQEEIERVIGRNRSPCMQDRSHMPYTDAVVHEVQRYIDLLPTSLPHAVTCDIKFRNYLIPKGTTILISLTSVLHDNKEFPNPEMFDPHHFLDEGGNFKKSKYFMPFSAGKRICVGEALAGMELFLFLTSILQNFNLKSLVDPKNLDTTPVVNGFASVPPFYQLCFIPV

[2] = Chemical stability (degradation kinetics) in acidic aqueous media; conditions: pH value ca. 1.2 (acetonitrile/0.1 M aqueous HCl 2:3), 37° C.
[3] = Aqueous solubility; assay type: physicochemical; conditions: buffer pH 2.2, 24 h shaking, 2.5% DMSO
Protocol: Starting from a 10 mM DMSO stock solution aliquots are diluted with acetonitrile/water (1/1) or buffer, respectively. After 24 h of shaking, the solutions are filtrated and analyzed by LC-UV. The amount dissolved in buffer is compared to the amount in the acetonitrile solution.

[4] = target: cytochrome P450 2C8-isoenzyme (Homo sapiens (Human), UniProt P10632); assay: Inhibition of CYP-2C8 (amodiaquine deethylation, human liver microsomes); assay type: in vitro ADME; conditions: read-out: IC50 (Cyp 2C8), amodiaquine 1 μM, 37° C.
[5] = target: cytochrome P450 2C9-isoenzyme (Homo sapiens (Human), UniProt P11712); assay: Inhibition of CYP-2C9 (diclofenac hydroxylation, human liver microsomes); assay type: in vitro ADME; conditions: read-out: IC50 (Cyp 2C9), diclofenac 10 μM, 37° C.

With `Cc1cc(-c2cc(=O)n(C)cn2)cc(C)c1-c1ccc(F)c2c1CC[C@H]2Nc1ccc([C@H]2C[C@@H]2C(=O)O)nc1` the EC50 [1] was 0.005 µM, the “Amount of degradation after 2 h” value [2] was under 0.5% and the “Solubility at pH value 2.2” value [3] was 111 μg/mL. For the same compound, the IC50 [4] was 40 µM and the IC50 [5] was over 50 µM.
